Test results: paper PMC7601400

Chains of the proteins cited; added tags and fusions are not shown. Lines headed by an entry give the natural chain unless they say otherwise; changes in a name come on top.
UniProt P22629: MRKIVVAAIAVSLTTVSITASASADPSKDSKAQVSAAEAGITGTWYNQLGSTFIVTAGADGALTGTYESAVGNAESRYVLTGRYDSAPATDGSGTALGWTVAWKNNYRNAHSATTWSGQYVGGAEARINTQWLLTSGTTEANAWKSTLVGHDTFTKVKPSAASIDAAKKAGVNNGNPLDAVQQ

Target: Streptavidin (UniProt P22629)
Assay: diffraction-based leaky waveguide (label-free optical biosensor); streptavidin held in a photopatterned chitosan film via PC-biotin (unexposed strips high loading, exposed strips low loading); PAB 0.07 mg/mL in 100 mM HEPES pH 7.4 pumped at 200 µL/min, 20 °C; shift in resonance angle fitted to an exponential rise

protein A–biotin (PAB) from Staphylococcus aureus (from UniProt P38507 37-477) (natural protein)
exponent of the exponential rise of the angle shift (exposed regions): 0.00174 s⁻¹ | exponent of the exponential rise of the angle shift (unexposed regions): 0.00486 s⁻¹
